# Tested on: Ba/F3 EML4-ALK L1196M cells
# Assay type: cell-based, rodent
# Conditions: not given
row,SMILES,BaF3 EML4 ALK L1196M [µM]
1,"CNCC(C)(C)c1cc(OC)c(Nc2ncc(Cl)c(Nc3ccccc3S(=O)(=O)C(C)C)n2)cc1C [Example 60, 5-chloro-N4-(2-(isopropylsulfonyl)phenyl)-N2-(2-methoxy-5-methyl-4-(2-methyl-1-(methylamino)propane-2-yl)phenyl)pyrimidine-2,4-diamine]",0.068
2,"COc1cc(C(C)(C)CN(C)C)c(C)cc1Nc1ncc(Cl)c(Nc2ccccc2S(=O)(=O)C(C)C)n1 [Example 65, 5-chloro-N2-(4-(1-(dimethylamino)-2-methylpropane-2-yl)-2-methoxy-5-methylphenyl)-N4-(2-(isopropylsulfonyl)phenyl)pyrimidine-2,4-diamine]",0.066
3,"COc1cc(CN(C)C)c(C)cc1Nc1ncc(Cl)c(Nc2ccccc2S(=O)(=O)C(C)C)n1 [Example 70, 5-chloro-N2-(4-((dimethylamino)methyl)-2-methoxy-5-methylphenyl)-N4-(2-(isopropylsulfonyl)phenyl)pyrimidine-2,4-diamine]",0.066
4,"C=C(C)c1cc(OCC)c(Nc2ncc(Cl)c(Nc3ccccc3S(=O)(=O)C(C)C)n2)cc1CCN [Example 74, N2-(5-(2-aminoethyl)-2-ethoxy-4-(prop-1-ene-2-yl)phenyl)-5-chloro-N4-(2-(isopropylsulfonyl)phenyl)pyrimidine-2,4-diamine]",1.60

# Same assay, conditions: Ba/F3 EML4-ALK L1196M cells; method as Experimental Example 4; type of value not given
row,SMILES,BaF3 EML4 ALK L1196M [µM]
1,"COc1cc(CCN(C)C)c(C)cc1Nc1ncc(Cl)c(Nc2ccccc2S(=O)(=O)C(C)C)n1 [Example 58, 5-chloro-N2-(4-(2-(dimethylamino)ethyl)-2-methoxy-5-methylphenyl)-N4-(2-(isopropylsulfonyl)phenyl)pyrimidine-2,4-diamine]",0.035
2,"COc1cc(C(C)(C)NC=O)c(C)cc1Nc1ncc(Cl)c(Nc2ccccc2S(=O)(=O)C(C)C)n1 [Example 61, N-(2-(4-((5-chloro-4-((2-(isopropylsulfonyl)phenyl)amino)pyrimidine-2-yl)amino)-5-methoxy-2-methylphenyl)propane-2-yl)formamide]",0.081
3,"CNC(C)(C)c1cc(OC)c(Nc2ncc(Cl)c(Nc3ccccc3S(=O)(=O)C(C)C)n2)cc1C [Example 64, 5-chloro-N4-(2-(isopropylsulfonyl)phenyl)-N2-(2-methoxy-5-methyl-4-(2-(methylamino)propane-2-yl)phenyl)pyrimidine-2,4-diamine]",0.066
4,COc1cc(-c2ccccc2)c(CCN)cc1Nc1ncc(Cl)c(Nc2ccccc2S(=O)(=O)C(C)C)n1 [Example 67],0.39
5,"COc1cc(C[N+](C)(C)C)c(C)cc1Nc1ncc(Cl)c(Nc2ccccc2S(=O)(=O)C(C)C)n1 [Example 69, 1-(4-((5-chloro-4-((2-(isopropylsulfonyl)phenyl)amino)pyrimidine-2-yl)amino)-5-methoxy-2-methylphenyl)-N,N,N-trimethylmethanealuminum iodide]",>10
6,"COc1cc(CNC=O)c(C)cc1Nc1ncc(Cl)c(Nc2ccccc2S(=O)(=O)C(C)C)n1 [Example 71, N-(4-((5-chloro-4-((2-(isopropylsulfonyl)phenyl)amino)pyrimidine-2-yl)amino)-5-methoxy-2-methylbenzyl)formamide]",0.062
7,"COc1ccc(CCN2CCNCC2)cc1Nc1ncc(Cl)c(Nc2ccccc2S(=O)(=O)C(C)C)n1 [Example 73, 5-chloro-N4-(2-(isopropylsulfonyl)phenyl)-N2-(2-methoxy-5-(2-(piperazine-1-yl)ethyl)phenyl)pyrimidine-2,4-diamine]",0.32
8,"C=C(C)c1cc(OC)c(Nc2ncc(Cl)c(Nc3ccccc3S(=O)(=O)C(C)C)n2)cc1CCN [Example 75, N2-(5-(2-aminoethyl)-2-methoxy-4-(prop-1-ene-2-yl)phenyl)-5-chloro-N4-(2-(isopropylsulfonyl)phenyl)pyrimidine-2,4-diamine]",0.39

# From patent publication US10100019B2
